Consider 29 compounds from PubChem BioAssay AID800 (PCMD, 2007).

By UniProt entry, the sequences of proteins in these tests, tags left out. Residues count along the entry.
UniProt P00748, 20-372 limits assumed: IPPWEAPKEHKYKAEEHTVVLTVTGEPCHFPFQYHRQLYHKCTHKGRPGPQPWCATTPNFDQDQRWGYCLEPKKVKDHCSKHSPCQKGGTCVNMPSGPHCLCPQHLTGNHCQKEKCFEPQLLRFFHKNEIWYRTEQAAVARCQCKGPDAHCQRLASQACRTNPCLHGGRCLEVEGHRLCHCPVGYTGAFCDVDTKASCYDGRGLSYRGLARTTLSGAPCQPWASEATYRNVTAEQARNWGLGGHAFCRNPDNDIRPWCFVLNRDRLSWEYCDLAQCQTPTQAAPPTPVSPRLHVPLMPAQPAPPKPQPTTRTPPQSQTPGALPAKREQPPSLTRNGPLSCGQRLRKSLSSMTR
UniProt P00748, 373-615 limits assumed: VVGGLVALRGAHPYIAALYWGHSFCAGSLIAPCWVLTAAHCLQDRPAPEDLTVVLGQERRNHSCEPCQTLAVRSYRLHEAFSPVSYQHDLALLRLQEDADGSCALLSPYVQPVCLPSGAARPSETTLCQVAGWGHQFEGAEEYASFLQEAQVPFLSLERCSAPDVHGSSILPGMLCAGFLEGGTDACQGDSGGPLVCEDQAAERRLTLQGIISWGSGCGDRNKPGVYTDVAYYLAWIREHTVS

One may read the inhibition as the change of the read-out against control, counted positive when it falls.

The entries are a selection whose mix differs from that of the whole data set. Activity calls are given as the source filed them. Cut-off read from the data, not from the text of the source: active = inhibition above about 40%; inactive = the rest.

The target of the test is Coagulation factor XII (Homo sapiens) (UniProt P00748). The experiment in a line: human FXIIa protease inhibitors, primary screen, biochemical, 1536-well (AID 800).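 Note: 0% = enzyme with no compound and 100% = blank without enzyme.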 The note with it: purified FXIIa, Boc-QGR-AMC fluorogenic substrate, 2 h; at 5 µM; active compounds read high.
`O=C(NCC1(N2CCCCC2)CCCCC1)c1cccc([N+](=O)[O-])c1`: the inhibition is inactive: 5.49%. For the compound `N#CC1(Nc2ccccc2)CCN(CCc2ccccc2)CC1`, the inhibition was inactive: 21.4%.

`COc1ccc(NC2CCN(C(=O)OC(C)(C)C)CC2)cc1`: the inhibition is inactive: 3.12%. With `CN1CCN(CCOC(=O)C(O)(c2ccccc2)c2ccccc2)CC1`, the inhibition is inactive: 12.6%.

With `O=C(NCC1(N2CCOCC2)CCCCC1)c1cc(=O)[nH]c2ccccc12`, the inhibition was inactive: -0.33%. Take `CN(C)c1cccc(C(=O)NCC2(N3CCCCC3)CCCCC2)c1`: the inhibition is inactive: 1.03%. In the case of `COc1ccc(CN(CCCl)CCCl)cc1Cl`, the inhibition was inactive: 4.46%. Consider `CC(C)c1ccc(NC2CCN(C(=O)OC(C)(C)C)CC2)cc1`, for which the inhibition was inactive: 2%. The value for `COc1ccc(C(=O)NCC2(N3CCCCC3)CCCCC2)c(OC)c1OC` was inactive: -1.96%; that for `CCOC(=O)N1CCC(Nc2ccc(OC)cc2)CC1` was inactive: 7.75%; that for `N#CC1(Nc2ccccc2)CCN(Cc2ccccc2)CC1` was inactive: 6.71%.

For `O=C(OC1CN2CCC1CC2)C1c2ccccc2Oc2ccccc21` (centres undefined), the inhibition was inactive: -0.76%. Then `O=C(NCC1(N2CCOCC2)CCCCC1)c1cc2ccccc2o1`, with inactive: 23.4%; and `COc1ccc(NC2CCN(CCc3ccccc3)CC2)c(OC)c1`, with inactive: 3.51%. As to `CCOc1ccc(C)cc1CN(CCCl)CCCl`, the inhibition was inactive: 3.02%. `Cc1ccc(OCC(C)C)c(CN(CCCl)CCCl)c1`: the inhibition is inactive: 12.6%.

`Fc1ccccc1NC1CCN(Cc2ccccc2)CC1`: the inhibition is inactive: 16.7%. Take `CN(C)c1ccc(C(=O)NCC2(N3CCCCC3)CCCCC2)cc1`: the inhibition is inactive: 7.56%.

On to `CCN1CCC(Nc2cccc(F)c2)CC1`, for which the inhibition is inactive: 6.93%. As to `CC(C)(C)OC(=O)N1CCC(Nc2ccccc2)CC1`, the inhibition is inactive: 10.6%. In the case of `CCOc1ncccc1C(=O)NCC1(N2CCOCC2)CCCCC1`, the inhibition was inactive: 9.18%.

With `CCCOc1ccc(C)cc1CN(CCCl)CCCl`, the inhibition was inactive: 1.54%.

For `CCC(CO)(C(=O)OC1CN2CCC1CC2)c1ccccc1` (centres undefined), the inhibition was inactive: 4.81%. On to `COc1cc(OC)cc(C(=O)NCC2(N3CCOCC3)CCCCC2)c1`, for which the inhibition is inactive: -0.61%.

For `COc1ccc(C(=O)NCC2(N3CCOCC3)CCCCC2)cc1OC`, the inhibition is inactive: 7.23%.

As to `O=C(OC1CN2CCC1CC2)C1c2ccccc2C=Cc2ccccc21` (centres undefined), the inhibition was inactive: 5.25%. Turning to `N/C(=N\O)c1c(N)no[n+]1[O-]`, the inhibition was inactive: 9.97%. For `N#Cc1ccc(C(=O)NCC2(N3CCCCC3)CCCCC2)cc1`, the inhibition was inactive: 5.26%.

As for `c1ccc(CN2CCC(Nc3ccccc3)CC2)cc1`, the inhibition is inactive: 6.08%.
